Compound activity from PubChem.
GIV-Gai inh = blocks GIV peptide binding to rat Galpha-i3. P08753. Galpha-i3/FITC-GIV peptide fluorescence polarization, 90 min; hits give low values; scaled: aluminum fluoride 0%, vehicle 100%. percent of control (FP), % (concentration not given with the values). actives 0.42% (n = 210,000). AID 1224905;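 active = replicate mean at 85% of control or lower, very high polarization wells dropped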;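 also: wells of about 15 µL received 100 nL stock; the first replicate is given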
HCMV UL50-53 inh = inhibitors of HCMV UL50-UL53 interaction, biochemical, HTRF. normalized percent inhibition. inhibition, % (test concentration not listed). 0.15% of 190,000 active. AID 1918969, 2023; in the data active means inhibition above about 27%, passing the limit was not always enough
Active calls of the source: *. Compounds with a hit are over-represented: about 0.46% of the library has one in this group of screens.

Cc1ccc(CSc2nc(C(=O)O)ccc2C#N)cc1 was read as HCMV UL50-53 inh 53.9*.
Screening O=C(NCCN1CCOCC1)c1ccc(CS(=O)c2ccc(Br)cc2)o1 (centres undefined) returned GIV-Gai inh 107.9 and HCMV UL50-53 inh -6.3.
`O=C(Nc1ccc(N2CCN(Cc3ccccc3Cl)CC2)cc1)c1ccco1` gave GIV-Gai inh 103.2 and HCMV UL50-53 inh -13.9.
For CC(=O)N1CC=C2C(C#N)=C(N)C(C#N)(C#N)C(Cc3ccccc3)C2C1 (centres undefined) the results were GIV-Gai inh 101.5 and HCMV UL50-53 inh -24.1.
CC(C)CC1C2CN(Cc3ccccc3)CC=C2C(C#N)=C(N)C1(C#N)C#N (centres undefined) was read as GIV-Gai inh 120.8 and HCMV UL50-53 inh -27.0.
N#CC1=C(N)C(C#N)(C#N)C(c2ccc(Br)cc2)C2CN(Cc3ccccc3)CC=C12 (centres undefined) was read as GIV-Gai inh 164.9.
Screening CN1CC=C2C(C#N)=C(N)C(C#N)(C#N)C(CCc3ccccc3)C2C1 (centres undefined) returned GIV-Gai inh -8.8* and HCMV UL50-53 inh -34.4.
For N#CC1=C(N)C(C#N)(C#N)C(c2ccc(Cl)cc2)C2CN(Cc3ccccc3)CC=C12 (centres undefined) the results were GIV-Gai inh -57.5*.
For CCCC1C2CN(Cc3ccccc3)CC=C2C(C#N)=C(N)C1(C#N)C#N (centres undefined) the results were GIV-Gai inh 19.7* and HCMV UL50-53 inh -43.2.
`Cc1ccc2c(c1)c(=O)c1ccccc1n2CC(=O)Nc1c(F)cc(F)cc1Br` gave GIV-Gai inh 104.2 and HCMV UL50-53 inh -14.9.
For CCN(CC)S(=O)(=O)c1ccc(/C=C/C(=O)Nc2ccccc2C)cc1 the results were HCMV UL50-53 inh -28.5.
Screening CCCc1cc(N2CCN(c3ccccn3)CC2)n2cnnc2n1 returned GIV-Gai inh 102.0 and HCMV UL50-53 inh -15.1.
CC(=O)Nc1c2c3c(cccc3n(C)c1=O)C(=O)c1ccccc1-2 was read as GIV-Gai inh 93.6.
For COCCCNc1c2c3c(cccc3n(C)c1=O)C(=O)c1ccccc1-2 the results were GIV-Gai inh -62.4*.
CSc1nnc(-c2ccncc2)n1Cc1ccccc1 was read as HCMV UL50-53 inh -15.9.
CCCCn1c(NC(=O)c2ccccc2)c(C#N)c2nc3ccccc3nc21 was read as HCMV UL50-53 inh 72.6.
Screening CCC(C)n1c(NC(=O)c2ccccc2)c(C#N)c2nc3ccccc3nc21 (centres undefined) returned HCMV UL50-53 inh 71.9*.
`CN1/C(=C\C=C2\C(=O)Oc3ccccc3C2=O)C(C)(C)c2ccccc21` gave GIV-Gai inh -32.1*.
For Cc1c(N=C/C=C2\N(C)c3ccccc3C2(C)C)c(=O)n(-c2ccccc2)n1C the results were HCMV UL50-53 inh -40.6.
`CCOC(=O)c1c(C)[nH]c(CCC(=O)Nc2ccsc2C(=O)OC)c1C` gave GIV-Gai inh 104.9.
Screening CC1CCN(c2cc(NC(C)C)c3c4c(onc24)-c2ccccc2C3=O)CC1 returned GIV-Gai inh -4.4* and HCMV UL50-53 inh -117.3.
`O=C1c2ccccc2-c2onc3c(Br)cc(NC4CCCCC4)c1c23` gave GIV-Gai inh 85.8 and HCMV UL50-53 inh -20.8.
For O=C1c2ccccc2-c2onc3c(N4CCN(C5CCCCC5)CC4)cc(NCCO)c1c23 the results were GIV-Gai inh 100.0 and HCMV UL50-53 inh -135.6.
For CC(C)Nc1cc(Br)c2noc3c2c1C(=O)c1ccccc1-3 the results were GIV-Gai inh -54.6*.

An excerpt of the results above, as a working copy:
Cc1ccc(CSc2nc(C(=O)O)ccc2C#N)cc1 was read as HCMV UL50-53 inh 53.9*.
Screening O=C(NCCN1CCOCC1)c1ccc(CS(=O)c2ccc(Br)cc2)o1 (centres undefined) returned GIV-Gai inh 107.9 and HCMV UL50-53 inh -6.3.
`O=C(Nc1ccc(N2CCN(Cc3ccccc3Cl)CC2)cc1)c1ccco1` gave GIV-Gai inh 103.2 and HCMV UL50-53 inh -13.9.
For CC(=O)N1CC=C2C(C#N)=C(N)C(C#N)(C#N)C(Cc3ccccc3)C2C1 (centres undefined) the results were GIV-Gai inh 101.5 and HCMV UL50-53 inh -24.1.
CC(C)CC1C2CN(Cc3ccccc3)CC=C2C(C#N)=C(N)C1(C#N)C#N (centres undefined) was read as GIV-Gai inh 120.8 and HCMV UL50-53 inh -27.0.

(cont.)
`Cc1ccccc1Nc1cc(N2CCCC2)c2noc3c2c1C(=O)c1ccccc1-3` gave GIV-Gai inh 109.4.
`Cc1ccccc1Nc1cc(N2CCCCC2)c2noc3c2c1C(=O)c1ccccc1-3` gave GIV-Gai inh 107.0.
Screening CN(C)CCCNc1cc(N2CCN(C3CCCCC3)CC2)c2noc3c2c1C(=O)c1ccccc1-3 returned GIV-Gai inh -7.2* and HCMV UL50-53 inh -150.9.
Screening CC(C)Nc1cc(N2CCN(Cc3ccc4c(c3)OCO4)CC2)c2noc3c2c1C(=O)c1ccccc1-3 returned GIV-Gai inh -31.4* and HCMV UL50-53 inh -64.0.
COC(=O)c1ccc(NC(=O)c2sc3nc(C)cc(=O)n3c2C(=O)Nc2ccccc2C)cc1 was read as GIV-Gai inh 102.7 and HCMV UL50-53 inh 2.1.
CCNc1cc(N2CCOCC2)c2noc3c2c1C(=O)c1ccccc1-3 was read as GIV-Gai inh -31.4* and HCMV UL50-53 inh -101.5.
`CCNc1cc(N2CCC3(CC2)OCCO3)c2noc3c2c1C(=O)c1ccccc1-3` gave GIV-Gai inh 240.2 and HCMV UL50-53 inh -121.0.
CC(C)CNc1cc(N2CCC(C)CC2)c2noc3c2c1C(=O)c1ccccc1-3 was read as GIV-Gai inh 198.3 and HCMV UL50-53 inh -53.1.
`CC1CCN(c2cc(NCc3ccccc3)c3c4c(onc24)-c2ccccc2C3=O)CC1` gave GIV-Gai inh -4.4* and HCMV UL50-53 inh -71.2.
For COc1cc(OC)c(-n2nnc(-c3nsc(Nc4ccc(OC)c(OC)c4)n3)c2C)cc1Cl the results were GIV-Gai inh 100.7.
Screening O=C(Nc1ccccc1)Nc1nc(CC(=O)N2CCc3ccccc3C2)cs1 returned GIV-Gai inh 107.5 and HCMV UL50-53 inh -19.6.
CN(Cc1nc(-c2ccccc2)cs1)C1CCc2c(c(C(=O)N3CCSCC3)nn2C)C1 (centres undefined) was read as HCMV UL50-53 inh -2.1.
Screening CCSC1=N/C(=C\c2ccc(C(=O)O)cc2)C(=O)S1 returned GIV-Gai inh 106.0.
`CCSC1=N/C(=C\c2ccc(N(C)C)cc2)C(=O)S1` gave GIV-Gai inh 27.7* and HCMV UL50-53 inh -4.3.
COC(=O)c1cccc(-c2ccc(/C=C3\Sc4ccccc4C3=O)o2)c1 was read as GIV-Gai inh 162.6 and HCMV UL50-53 inh 5.1.
Screening O=C(O)c1ccc(-c2ccc(/C=C3\Sc4ccccc4C3=O)o2)cc1 returned GIV-Gai inh -10.5*.
`CCOC(=O)c1ccc(-c2ccc(/C=C3\Sc4ccccc4C3=O)o2)cc1` gave GIV-Gai inh 115.7 and HCMV UL50-53 inh -18.4.
For O=C(O)c1cccc(-c2ccc(/C=C3\Sc4ccccc4C3=O)o2)c1 the results were GIV-Gai inh -72.6* and HCMV UL50-53 inh -86.1.
`COc1ccc(-c2csc(NC(=O)CN3CCCC3c3cccs3)n2)cc1` (centres undefined) gave HCMV UL50-53 inh -1.3.
Screening CCCn1cc(SCC(=O)Nc2nccs2)c2ccccc21 returned HCMV UL50-53 inh -11.9.
OCCN1CCN(C(c2ccc(C(F)(F)F)cc2)c2ccc3cccnc3c2O)CC1 (centres undefined) was read as GIV-Gai inh 100.9 and HCMV UL50-53 inh -14.0.
For CCCN1C(=O)/C(=C/c2ccc(-c3cccc(C(F)(F)F)c3)o2)NC1=S the results were GIV-Gai inh 187.3 and HCMV UL50-53 inh -30.4.
`CCCN1C(=O)/C(=C/c2ccc(-c3ccc(Br)cc3)o2)NC1=S` gave GIV-Gai inh -83.0* and HCMV UL50-53 inh -26.9.
`CC(C)NS(=O)(=O)c1ccc(-c2ccno2)s1` gave GIV-Gai inh 31.3*.
Screening CC1CCC(NS(=O)(=O)c2ccc(-c3ccno3)s2)CC1 (centres undefined) returned GIV-Gai inh 94.9.
For CCOCNC(=O)Nc1ccc(Cl)cc1 the results were HCMV UL50-53 inh -9.3.
